Patent US4672036A, “Pure cultures of Kibdelsporangium aridum Shearer gen. nov., sp. nov. ATCC 39323 and mutants thereof” (SmithKline Beckman Corporation, priority 1985, dated 1987)

How the values were obtained:
rumen in vitro model = rumen in vitro model (growth promotant activity); parameters: species or system steer; details: for LYS (lysine): 50.0 ppm
Swine in vitro model = assay: swine in vitro model (growth promotant activity); details: 1.67 ppm

| Molecule | VFA (total of volatile fatty acids) (rumen in vitro model; 5.0 ppm) | LYS (lysine) (rumen in vitro model) | GLU (glucose) (Swine in vitro model) | LAC (L-lactic acid) (Swine in vitro model) |
| --- | --- | --- | --- | --- |
| CN[C@H](CC(C)C)C(=O)N[C@H]1C(=O)N[C@@H](CC(N)=O)C(=O)N[C@H]2C(=O)N[C@H]3C(=O)N[C@H](C(=O)N[C@H](C(=O)O)c4cc(O)cc(O)c4-c4cc3ccc4O)[C@H](O)c3ccc(c(Cl)c3)Oc3cc2cc(c3O[C@@H]2O[C@H](CO)[C@@H](O)[C@H](O)[C@H]2O[C@H]2C[C@](C)(N)[C@H](O)[C@H](C)O2)Oc2ccc(cc2Cl)[C@H]1O [Vancomycin, reference compound] | 108 % Control | 97 % Control | 100 % Control | 99 % Control |
| Avoparcin | – | 97 % Control | – | – |
